The results in this text go back to patent US9404916B2, “Use of a protein kinase inhibitor to detect immune cells, such as T cells” (University College Cardiff Consultants Limited, priority 2008, dated 2016).

The target of experiment [1] is IE6 TCR (on CTL clone IE6). The experiment in a line: flow cytometry, tetramer against CD8 APC on CTL clone IE6; Untreated. Background: In flow cytometry, cells or beads pass a laser one at a time.

On to “HLA A2/PPI15-24 tetramer (from UniProt P61769 21-119) (peptide-MHC)”, for which the % of cells in the tetramer+ CD8+ quadrant was 4% in experiment [1] and 0.02% in the experiment with Short term line.
